Where “and” joins values, the source holds several entries; their conditions need not be identical. Equal entries are not always repeated.

Protein sequences, listed by entry. Tags and fused reporters are not part of them. Residues count along the entry.
UniProt P09616, 27-319 limits assumed: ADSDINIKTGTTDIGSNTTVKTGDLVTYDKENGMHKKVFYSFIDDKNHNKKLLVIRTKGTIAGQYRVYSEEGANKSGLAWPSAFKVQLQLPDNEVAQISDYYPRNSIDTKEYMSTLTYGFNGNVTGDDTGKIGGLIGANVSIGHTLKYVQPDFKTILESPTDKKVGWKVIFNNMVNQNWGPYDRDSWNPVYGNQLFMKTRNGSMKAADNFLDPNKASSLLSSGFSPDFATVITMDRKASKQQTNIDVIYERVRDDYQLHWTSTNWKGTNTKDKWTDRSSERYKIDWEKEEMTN

Drawing on patent US20130164308A1 (RINAT NEUROSCIENCE, published 2013), this text covers Kd for two molecules.

This assay addresses S. aureus alpha-toxin (Staphylococcus aureus, UniProt P09616).

B1: alpha-toxin antibody DF1 (IgG), germlined version of DF1.1 (antibody, V domains shown)
VH: QVQLVQSGAEVKKPGSSVKVSCKASGGTFNNVAINWVRQAPGQGLEWMGGIIPGLDTPNYAQKFQGRVTITADESTSTAYMELSSLRSEDTAVYYCAREMEVSGRWRPTEAFEIWGQGTLVTVSS
VL: EIVLTQSPGTLSLSPGERATLSCRASQTISNNFVAWYQQKPGQAPRLLIYGASTRATGIPDRFSGSGSGTDFTLTISRLEPEDFAVYYCQQYGSSPYTFGQGTKLEIKR
Take B1: the Kd is 580 pM and 590 pM and 760 pM.

B2: alpha-toxin antibody DF2 (IgG) (antibody, V domains shown)
VH: QVQLVQSGAEVKKPGSSVKVSCKASGGTFNNVAINWVRQAPGQGLEWMGGIIPGLDTPNYAQKFQGRVTITADESTSTAYMELSSLRSEDTAVYYCAREVEVSGRWRPTEAFEIWGQGTLVTVSS
VL: EIVLTQSPGTLSLSPGERATLSCRASQTISNNFVAWYQQKPGQAPRLLIYGASTRATGIPDRFSGSGSGTDFTLTISRLEPEDFAVYYCQQYGSSPYTFGQGTKLEIKR
For B2, the dissociation constant (Kd) was 150 pM and 210 pM.
